Laboratory results taken from patent publication US9416348B2, “Hepatocyte-like cells and uses thereof” (priority 2010, dated 2016).

Columns and labels:
[1] = test system: Primary hepatocyte; settings: mouse, 3 h
[2] = test system: iHep cells; settings: mouse, 3 h, 200 μM
Description: (§1) To determine Alb secretion, TTFs transduced with three factors were cultured in the medium without phenol red. Culture supernatant was collected 24 h after medium change. The amount of Alb in the supernatant was determined by the mouse albumin ELISA kit (BETHYL LABORATORY) according to the manufacturer's instructions. […] The supernatants were collected for measurement of indicated productions by LC-MS/MS (AGILENT 1200 HPLC and ABI 4000 mass-spectrometer). Freshly isolated hepatocytes were used as a positive control. Total cell protein amount was used to normalize the data.
(§2) Metabolites of these chemicals were measured by liquid chromatography-tandem mass spectrometry (LC/MS/MS) according to each standard curve.

[3] = test system: TTF; settings: mouse, 3 h
Description: as §1, §2

- 4′-OH-Diclotenac ([1]; 12.5 μM): 190.8 ± 22.8 pmol/min/mg protein
- 4′-OH-Diclotenac ([1]; 25 μM): 283.1 ± 23.3 pmol/min/mg protein
- 4′-OH-Diclotenac ([1]; 50 μM): 452.8 ± 47.6 pmol/min/mg protein
- 4′-OH-Diclotenac ([1]; 200 μM): 1484.6 ± 8.0 pmol/min/mg protein
- 4′-OH-Diclotenac [2]: 756.7 ± 63.6 pmol/min/mg protein
- 4′-OH-Diclotenac ([3]; 12.5 μM): 0.0 pmol/min/mg protein
- 4′-OH-Diclotenac ([3]; 25 μM): 2.8 ± 2.4 pmol/min/mg protein
- 4′-OH-Diclotenac ([3]; 50 μM): 32.5 ± 13.6 pmol/min/mg protein
- 4′-OH-Diclotenac ([3]; 100 μM): 119.8 ± 11.0 pmol/min/mg protein
SMILES: O=C(O)Cc1ccccc1Nc1c(Cl)cccc1Cl [Diclofenac, diclofenac]

Read-outs that look alike come from different tables or passages of the source.
